Measurements from publication PMC10166890, “Screening for DAX1/EWS‐FLI1 functional inhibitors identified dihydroorotate dehydrogenase as a therapeutic target for Ewing's sarcoma” (Cancer Medicine, 2023).

Chains of the proteins cited; added tags and fusions are not shown.
UniProt Q02127, whole entry: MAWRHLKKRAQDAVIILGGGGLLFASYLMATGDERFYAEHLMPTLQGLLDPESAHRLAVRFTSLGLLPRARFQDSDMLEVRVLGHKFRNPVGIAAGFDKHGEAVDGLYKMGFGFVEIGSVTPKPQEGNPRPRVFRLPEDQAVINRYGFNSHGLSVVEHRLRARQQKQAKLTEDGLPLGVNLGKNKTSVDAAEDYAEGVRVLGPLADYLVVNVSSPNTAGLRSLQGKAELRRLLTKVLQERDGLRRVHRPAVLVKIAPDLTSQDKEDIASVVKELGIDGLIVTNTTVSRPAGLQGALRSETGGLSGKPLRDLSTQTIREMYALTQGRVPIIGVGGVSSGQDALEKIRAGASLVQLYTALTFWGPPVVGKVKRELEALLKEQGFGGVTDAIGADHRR

Legend:
A‐673 cells = test: Cell viability assay (XTT), A‐673 cells
TC‐71 cells = test: Cell viability assay (XTT), TC‐71 cells; settings: 72 h
DAX1 = DAX1 reporter assay (KJMGER8/pAGal9p4‐hDAX1 cells, luciferase); format: cell-based, human; settings: read-out: DAX1 reporter IC50; Table S3
Method: pAGal9‐hDAX1 and pAPPRE×10‐Luc + were transfected into KJMGER8 cells by electroporation using a Gene Pulser (Bio‐Rad Laboratories, Hercules, CA, USA), and clones stably expressing the DAX1 and luciferase reporter genes under the control of PPRE were selected. The obtained clone was termed KJMGER8/pAGal9p4‐hDAX1. KJMGER8/pAGal9p4‐hDAX1 cells (1.8 × 10^4 cells/well) were seeded in 384‐well white plates (Greiner Japan, Tokyo, Japan) and cultured in RPMI1640‐IPTSG medium containing 10 nM 17β‐estradiol (E2; Sigma‐Aldrich), dissolved in ethanol, with test compounds at concentration ranges of 0.01 to 10,000 nM or vehicle (dimethyl sulfoxide [DMSO]). The final DMSO concentration was ≤0.3%, and the ethanol concentration was 0.1%. […] The luciferase activity was measured using a TopCount NXT system (PerkinElmer, Waltham, MA, USA). IC50 values were calculated using XLfit version 4 (ID Business Solutions, Surrey, UK). […]
pAGal9-hDAX1 and pAPPRE×10-Luc+ were transfected into KJMGER8 cells by electroporation using a Gene Pulser (Bio-Rad Laboratories, Hercules, CA, USA), and clones stably expressing the DAX1 and luciferase reporter genes under the control of PPRE were selected. […] The luciferase activity was measured using a TopCount NXT system (PerkinElmer, Waltham, MA, USA). IC50 values were calculated using XLfit version 4 (ID Business Solutions, Surrey, UK)

DHODH = DHODH (Homo sapiens, UniProt Q02127); test: DHODH inhibition assay, A‐673 mitochondria fraction (orotic acid production, LCMSMS); format: biochemical; settings: read-out: DHODH IC50, Table S3

O=S(=O)(Oc1ccc(NCc2ccccc2)cc1)c1ccc(-c2ccc(F)cc2)nc1
Cell viability of A‐673 cells (A‐673 cells; 72 h): decreased the viability
GI50 (A‐673 cells; read-out: A673 GI50, 50% growth inhibition concentration, A‐673 cells): 247 nM
Cell viability of TC‐71 cells (TC‐71 cells): decreased the viability
IC50 (DAX1): 437 nM
IC50 (DHODH): 25.2 nM
